Ki data for one compound are collected here from BindingDB's records for doi:10.1073/pnas.96.13.7563 (St. Bartholomew's and The Royal London School of …, 1999).

Amino acid sequences for entries named in this document (tags omitted).
UniProt P23219, whole entry: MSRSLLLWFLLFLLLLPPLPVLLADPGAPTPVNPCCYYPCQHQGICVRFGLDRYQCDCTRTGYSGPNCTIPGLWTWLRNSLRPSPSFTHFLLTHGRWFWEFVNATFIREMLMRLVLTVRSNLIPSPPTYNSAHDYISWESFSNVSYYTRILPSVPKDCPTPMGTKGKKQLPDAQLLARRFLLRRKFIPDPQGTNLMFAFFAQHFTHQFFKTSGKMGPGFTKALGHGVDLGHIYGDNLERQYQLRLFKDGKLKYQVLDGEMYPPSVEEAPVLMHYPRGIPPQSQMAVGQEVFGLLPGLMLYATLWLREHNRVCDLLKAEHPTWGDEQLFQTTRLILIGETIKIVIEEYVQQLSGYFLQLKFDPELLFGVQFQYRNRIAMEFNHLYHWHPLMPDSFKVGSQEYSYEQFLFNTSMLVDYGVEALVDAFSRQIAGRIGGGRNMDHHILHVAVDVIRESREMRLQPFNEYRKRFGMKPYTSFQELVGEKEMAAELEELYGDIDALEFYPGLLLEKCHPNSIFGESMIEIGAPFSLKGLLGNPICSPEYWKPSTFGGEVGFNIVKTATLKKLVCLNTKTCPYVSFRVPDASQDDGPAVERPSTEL

For the assay, the target named is Prostaglandin G/H synthase 1 (Homo sapiens, UniProt P23219).

`Oc1ccc(/C=C/c2cc(O)cc(O)c2)cc1` [5-[(E)-2-(4-hydroxyphenyl)ethenyl]benzene-1,3-diol] yielded a Ki of more than 10 µM.

A word on the Ki: it is the equilibrium dissociation constant of an inhibitor or competing ligand from its target. Low readings indicate a stronger hold on the target, high ones a looser hold on the target.
